Literature values, collected in patent publication US20050153033A1, “Lactic acid bacteria for the treatment of food” (priority 2003, published 2005).

Details: enzymes as listed for each bacteriocin in b6, b115; cited from earlier work

## nisin
  effect of proteolytic enzymes on the bacteriocin: inactivate
